For this data set the following is noted: s.c. delivery.

Structures are written as SMILES.

In the case of `CC(=O)O[C@@]1([C@@H]2/C(C)=C(/O)C(=O)C3=C(C)[C@@H](OC(=O)[C@H](O)[C@H](CC(C)C)NC(=O)OC(C)(C)C)C[C@@](O)([C@H]2OC(=O)c2ccccc2)C3(C)C)CO[C@@H]1CCO` [IDN 5390, 13-(N-Boc-β-isobutylisoserinyl)-10β-dehydro-C-seco-10-deacetylbaccatin III], the local vesicant toxicity result was “no local vesicant toxicity was observed”.

Source of the values: article PMC2377083, “IDN 5390: an oral taxane candidate for protracted treatment schedules” (British Journal of Cancer, 2003).
